Marks after values point to notes of the source that are not given here.
Assays:
Format in all cases: cell-based, human
[1] = system: Mel 526 (HLA-A2+/MART-1+) melanoma cell line; assay: In vitro cytotoxicity assay (51Cr release) by polyclonal CTL lines generated with analog peptides; target Mel 526; settings: target Mel526
Description: (§1) Following in vitro peptide stimulation of HLA-A2^+ PBMC from melanoma patients MelPt-B, MelPt-C, MelPt-D, MelPt-F and a healthy donor (Healthy-1) MART-126-35 tetramer and CD8 positive cells were sorted and isolated on BD FACSaria. Isolated cells were replicated using 30 ng/ml anti-CD3 antibody (OKT3) and IL-2 at 50 U/ml in the presence of irradiated feeder PBMC and LCL for 2 weeks. IL-2 was replenished every 2-3 days. Following the stimulation, cultures were stained for the generation of MART-126-35 tetramer and CD8 positive cell populations. The polyclonal cell lines were tested for lytic activity and TCR Vβ usage (MelPt-C only), as described in Example 6.
(§2) Target cells were labeled with 100 μCi of ^51Cr and co-cultured with effector cells for 4 hours at 37° C. plus 5% CO2. Targets were melanoma cell lines A375 (HLA-A2^+/NY-ESO-1^+) and Mel 526 (HLA-A2^+/MART-1^+), and T2 cells pulsed with 1 μM of MART-126-35 (positive control) or NY-ESO-1157-165 (negative control). […] Assays were performed in triplicate at a 50:1, 25:1 or 12.5:1 effector to target ratio. Released ^51Cr was measured with a gamma scintillation counter and percent specific lysis was determined by using the formula: percent specific release=(experimental release-spontaneous release)/(maximum release-spontaneous release).
(§3) These cell lines were screened for reactivity to unmodified MART-126-35 peptide pulsed HLA-A2 positive targets and to HLA-A2/MART-1 positive tumor targets at varying effector to target ratios in a standard chromium release assay (Table 10).
(§4) “ND” is not done. T2 is a TAP-deficient cell line that expresses peptide-unbound HLA-A2 molecules unless pulsed extracellularly. Here, T2 was pulsed with NYESO-1157-165 unless indicated otherwise. M26 is an abbreviation for the unmodified MART-126-35 peptide. Numbers represent the percentage specific lysis obtained from each target. T375 is a HLA-A2 positive/MART-1 negative cell line.

Sequences of proteins named here, by UniProt entry; tags and fusion partners are left off. A change or cut given only in a name is not applied to a line headed by its entry.
UniProt Q16655: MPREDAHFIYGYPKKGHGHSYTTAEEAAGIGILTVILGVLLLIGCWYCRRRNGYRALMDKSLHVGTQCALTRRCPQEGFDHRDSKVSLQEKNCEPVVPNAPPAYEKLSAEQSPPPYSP

[2] = system: T2 cells pulsed with NY-ESO-1157-165; assay: In vitro cytotoxicity assay (51Cr release) by polyclonal CTL lines generated with analog peptides; target T2 pulsed with NY-ESO-1157-165 (negative control); settings: target T2 (pulsed with NYESO-1157-165)
Description: as §1, §2, §3, §4

[3] = system: T2 cells pulsed with 1 μM of MART-126-35; assay: In vitro cytotoxicity assay (51Cr release) by polyclonal CTL lines generated with analog peptides; target T2 pulsed with MART-126-35 (M26)
Description: as §1, §2, §3, §4

[4] = system: A375 (HLA-A2+/NY-ESO-1+) melanoma cell line; assay: In vitro cytotoxicity assay (51Cr release) by polyclonal CTL lines generated with analog peptides; target A375
Description: as §1, §2, §3, §4

PBMC (CD-8+ population) = assay: PBMC stimulation with NY-ESO-1157-165 peptides and HLA-A2/NY-ESO tetramer/anti-CD8 staining (flow cytometry)
Description: FIG. 7. […] Following a 1-week primary and 1-week secondary peptide stimulation (Week 2), and an additional week (Week 3), cultures were stained with FITC-labeled anti-CD8 antibody and APC-labeled HLA-A2/NY-ESO and analyzed by flow cytometry. Two peptides were tested, NY-ESO-1157-165 (SEQ ID NO:366) wild-type, and NY-ESO-1157-170 (V) (SEQ ID NO:376).
The NY-ESO-1157-165 C165V APL SEQ ID NO:376 was compared to wild-type NY-ESO-I157-165 SEQ ID NO:366 in effectively producing CTL from PBMC.

[5] = CTL line from Healthy1, E/T 12.5
[6] = CTL line from MelPt-B, E/T 12.5
[7] = CTL line from MelPt-C, E/T 12.5
[8] = CTL line from MelPt-D, E/T 12.5

MART-126-35E26S (SAAGIGILTV; UniProt Q16655 26-35, looked up, variant E26S)
Percentage Specific Lysis from polyclonal CTL lines generated with the indicated peptide [1, 5]: 10% | Percentage Specific Lysis from polyclonal CTL lines generated with the indicated peptide ([1]; CTL line from Healthy1, E/T 25): 15% | Percentage Specific Lysis from polyclonal CTL lines generated with the indicated peptide ([1]; CTL line from Healthy1, E/T 50): 28% | Percentage Specific Lysis from polyclonal CTL lines generated with the indicated peptide [1, 6]: 30% | Percentage Specific Lysis from polyclonal CTL lines generated with the indicated peptide ([1]; CTL line from MelPt-B, E/T 25): 45% | Percentage Specific Lysis from polyclonal CTL lines generated with the indicated peptide ([1]; CTL line from MelPt-B, E/T 50): 58% | Percentage Specific Lysis from polyclonal CTL lines generated with the indicated peptide [1, 7]: 25% | Percentage Specific Lysis from polyclonal CTL lines generated with the indicated peptide ([1]; CTL line from MelPt-C, E/T 25): 32% | Percentage Specific Lysis from polyclonal CTL lines generated with the indicated peptide ([1]; CTL line from MelPt-C, E/T 50): 41% | Percentage Specific Lysis from polyclonal CTL lines generated with the indicated peptide [1, 8]: 25% | Percentage Specific Lysis from polyclonal CTL lines generated with the indicated peptide ([1]; CTL line from MelPt-D, E/T 25): 32% | Percentage Specific Lysis from polyclonal CTL lines generated with the indicated peptide ([1]; CTL line from MelPt-D, E/T 50): 41% | Percentage Specific Lysis from polyclonal CTL lines generated with the indicated peptide [2, 5]: 0% | Percentage Specific Lysis from polyclonal CTL lines generated with the indicated peptide ([2]; CTL line from Healthy1, E/T 25): 0% | Percentage Specific Lysis from polyclonal CTL lines generated with the indicated peptide ([2]; CTL line from Healthy1, E/T 50): 0% | Percentage Specific Lysis from polyclonal CTL lines generated with the indicated peptide [2, 6]: 2% | Percentage Specific Lysis from polyclonal CTL lines generated with the indicated peptide ([2]; CTL line from MelPt-B, E/T 25): 0% | Percentage Specific Lysis from polyclonal CTL lines generated with the indicated peptide ([2]; CTL line from MelPt-B, E/T 50): 0^c % | Percentage Specific Lysis from polyclonal CTL lines generated with the indicated peptide [2, 7]: 1% | Percentage Specific Lysis from polyclonal CTL lines generated with the indicated peptide ([2]; CTL line from MelPt-C, E/T 25): 7% | Percentage Specific Lysis from polyclonal CTL lines generated with the indicated peptide ([2]; CTL line from MelPt-C, E/T 50): 2% | Percentage Specific Lysis from polyclonal CTL lines generated with the indicated peptide [2, 8]: 1% | Percentage Specific Lysis from polyclonal CTL lines generated with the indicated peptide ([2]; CTL line from MelPt-D, E/T 25): 8% | Percentage Specific Lysis from polyclonal CTL lines generated with the indicated peptide ([2]; CTL line from MelPt-D, E/T 50): 3% | Percentage Specific Lysis from polyclonal CTL lines generated with the indicated peptide [3, 5]: 18% | Percentage Specific Lysis from polyclonal CTL lines generated with the indicated peptide ([3]; CTL line from Healthy1, E/T 25): 26% | Percentage Specific Lysis from polyclonal CTL lines generated with the indicated peptide ([3]; CTL line from Healthy1, E/T 50): 34% | Percentage Specific Lysis from polyclonal CTL lines generated with the indicated peptide [3, 6]: 21% | Percentage Specific Lysis from polyclonal CTL lines generated with the indicated peptide ([3]; CTL line from MelPt-B, E/T 25): 31% | Percentage Specific Lysis from polyclonal CTL lines generated with the indicated peptide ([3]; CTL line from MelPt-B, E/T 50): 40% | Percentage Specific Lysis from polyclonal CTL lines generated with the indicated peptide [3, 7]: 54% | Percentage Specific Lysis from polyclonal CTL lines generated with the indicated peptide ([3]; CTL line from MelPt-C, E/T 25): 66% | Percentage Specific Lysis from polyclonal CTL lines generated with the indicated peptide ([3]; CTL line from MelPt-C, E/T 50): 87% | Percentage Specific Lysis from polyclonal CTL lines generated with the indicated peptide [3, 8]: 54% | Percentage Specific Lysis from polyclonal CTL lines generated with the indicated peptide ([3]; CTL line from MelPt-D, E/T 25): 65% | Percentage Specific Lysis from polyclonal CTL lines generated with the indicated peptide ([3]; CTL line from MelPt-D, E/T 50): 87% | Percentage Specific Lysis from polyclonal CTL lines generated with the indicated peptide [4, 5]: 8% | Percentage Specific Lysis from polyclonal CTL lines generated with the indicated peptide ([4]; CTL line from Healthy1, E/T 25): 5% | Percentage Specific Lysis from polyclonal CTL lines generated with the indicated peptide ([4]; CTL line from Healthy1, E/T 50): 9% | Percentage Specific Lysis from polyclonal CTL lines generated with the indicated peptide [4, 6]: 8% | Percentage Specific Lysis from polyclonal CTL lines generated with the indicated peptide ([4]; CTL line from MelPt-B, E/T 25): 4% | Percentage Specific Lysis from polyclonal CTL lines generated with the indicated peptide ([4]; CTL line from MelPt-B, E/T 50): 6% | Percentage Specific Lysis from polyclonal CTL lines generated with the indicated peptide [4, 7]: 2% | Percentage Specific Lysis from polyclonal CTL lines generated with the indicated peptide ([4]; CTL line from MelPt-C, E/T 25): 5% | Percentage Specific Lysis from polyclonal CTL lines generated with the indicated peptide ([4]; CTL line from MelPt-C, E/T 50): 8% | Percentage Specific Lysis from polyclonal CTL lines generated with the indicated peptide [4, 8]: 6% | Percentage Specific Lysis from polyclonal CTL lines generated with the indicated peptide ([4]; CTL line from MelPt-D, E/T 25): 7% | Percentage Specific Lysis from polyclonal CTL lines generated with the indicated peptide ([4]; CTL line from MelPt-D, E/T 50): 8%

NY-ESO-1157-165 C165V: NY-ESO-1 157-165 APL with C165V substitution (SLLMWITQVF)
Avidity to a CD-8+ population compared with the wild type sequence (PBMC (CD-8+ population); CTL from PBMC, FIG. 7): higher avidity than the wild type sequence | Generation of specific CTL (CD8 / HLA-A2/NY-ESO tetramer) compared with wild type peptide (PBMC (CD-8+ population); Week 2 and Week 3, FIG. 7): better than the wild type peptide
